For one compound, Ki results are on record in ChEMBL document CHEMBL1143395, “Cloning, expression, post-translational modifications and inhibition studies on the latest mammalian carbonic anhydrase isoform, CA XV” (J Med Chem, 2009).

This assay deals with T1, Carbonic anhydrase 15 (Mus musculus, UniProt Q99N23).
T1 sequence (Q99N23 whole entry): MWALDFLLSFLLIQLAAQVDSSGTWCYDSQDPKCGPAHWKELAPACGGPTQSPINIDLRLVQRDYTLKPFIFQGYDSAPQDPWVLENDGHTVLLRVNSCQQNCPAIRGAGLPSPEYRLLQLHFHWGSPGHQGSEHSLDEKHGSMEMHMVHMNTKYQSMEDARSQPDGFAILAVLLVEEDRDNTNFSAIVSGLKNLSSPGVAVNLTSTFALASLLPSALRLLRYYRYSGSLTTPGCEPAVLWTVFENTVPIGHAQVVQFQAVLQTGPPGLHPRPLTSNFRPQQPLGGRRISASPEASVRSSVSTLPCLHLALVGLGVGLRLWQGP

The Ki is the equilibrium dissociation constant of an inhibitor or competing ligand from its target. Lower therefore signals a stronger hold on the target. In turn, `Cc1ccc(-c2cc(C(F)(F)F)nn2-c2ccc(S(N)(=O)=O)cc2)cc1` [CELECOXIB] had a Ki of 45 nM.
